The source of these data is PubChem BioAssay AID686957 (The Scripps Research Institute Molecular Screening Center, 2013).

In this experiment the target is T-cell receptor (TCR)-CD3 interaction, human (TCR alpha chain TRAV4). Kind of experiment: potency of TCR-CD3 interaction inhibitors, dose response, biochemical, fluorescence, TAMRA-labeled TCR probe (AID 686957). The conditions noted are these: TCR-CD3 binding.

Activity calls are given as the source filed them. How the calls were made is not given here.

For the compound `Oc1ccc(/C=N/NC(=S)Nc2cccnc2)c(O)c1O`, the IC50 entry was “inactive”.
